Measurements from US8436185B2, “Pharmaceutically acceptable salts of 2-{4-[(3S)-piperidin-3-yl]phenyl}-2H-indazole-7-carboxamide” (Merck Sharp & Dohme Corp., priority 2008, dated 2013).

Assay: physchem

SMILES	solubility [µg/mL]
Cl.NC(=O)c1cccc2cn(-c3ccc([C@@H]4CCCNC4)cc3)nc12 [Chloride salt, (3S)-3-[4-[7-(Aminocarbonyl)-2H-indazol-2-yl]phenyl]piperidinium chloride]	> 20000
Cc1ccc(S(=O)(=O)O)cc1.NC(=O)c1cccc2cn(-c3ccc([C@@H]4CCCNC4)cc3)nc12 [Example 1, (3S)-3-{4-[7-(Aminocarbonyl)-2H-indazol-2-yl]phenyl}piperidinium 4-methylbenzenesulfonate]	800
